Assays:
[1] = biological target: Phosphatidylinositol 4,5-bisphosphate 3-kinase catalytic subunit alpha isoform (Homo sapiens, UniProt P42336); assay: Inhibition of recombinant human N-terminal Myr signal and C-terminal Flag-tagged PI3K p110alpha expressed in rat Rat1 cells; assay type: cell-based
[2] = biological target: PI3-kinase p110-alpha/p85-alpha (Homo sapiens, UniProt P42336); assay: Inhibition of recombinant human full-length PI3K p110alpha/p85alpha (322 to 600) expressed in baculovirus infected Sf21 cells using phosphatidylinositol 4,5-bisphosphate as substrate preincubated for 15 mins followed by addition of ATP and measured after 30 mins by fluorescence polarisation assay

Protein sequences, listed by entry. Tags and fused reporters are not part of them.
UniProt P42336, whole entry: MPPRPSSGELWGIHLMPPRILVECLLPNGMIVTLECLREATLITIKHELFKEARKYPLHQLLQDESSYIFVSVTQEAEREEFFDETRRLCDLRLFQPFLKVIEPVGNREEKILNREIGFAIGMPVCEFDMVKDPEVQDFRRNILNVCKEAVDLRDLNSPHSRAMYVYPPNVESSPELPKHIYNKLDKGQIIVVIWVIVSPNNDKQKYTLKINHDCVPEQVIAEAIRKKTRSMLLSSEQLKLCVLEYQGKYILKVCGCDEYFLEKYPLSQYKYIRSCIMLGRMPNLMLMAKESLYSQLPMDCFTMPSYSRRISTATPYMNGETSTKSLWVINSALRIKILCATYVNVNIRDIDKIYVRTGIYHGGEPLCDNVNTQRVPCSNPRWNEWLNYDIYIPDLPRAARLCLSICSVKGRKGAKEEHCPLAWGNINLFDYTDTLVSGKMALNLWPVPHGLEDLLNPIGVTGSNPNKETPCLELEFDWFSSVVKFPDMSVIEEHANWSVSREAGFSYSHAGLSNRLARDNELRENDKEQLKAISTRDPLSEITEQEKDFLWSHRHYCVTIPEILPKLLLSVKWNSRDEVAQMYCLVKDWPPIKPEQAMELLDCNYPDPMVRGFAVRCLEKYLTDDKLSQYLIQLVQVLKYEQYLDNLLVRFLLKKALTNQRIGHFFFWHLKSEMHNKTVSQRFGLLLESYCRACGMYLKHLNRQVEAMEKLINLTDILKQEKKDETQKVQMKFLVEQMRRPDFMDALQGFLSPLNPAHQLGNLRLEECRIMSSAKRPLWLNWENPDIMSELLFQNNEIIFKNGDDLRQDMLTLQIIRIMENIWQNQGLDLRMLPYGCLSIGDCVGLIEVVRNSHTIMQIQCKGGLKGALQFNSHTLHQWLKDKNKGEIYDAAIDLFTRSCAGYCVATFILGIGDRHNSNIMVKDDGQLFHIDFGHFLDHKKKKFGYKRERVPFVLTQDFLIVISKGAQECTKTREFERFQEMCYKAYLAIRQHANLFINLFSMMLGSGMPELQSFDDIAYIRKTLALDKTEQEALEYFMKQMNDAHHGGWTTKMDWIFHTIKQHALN

IC50 [1]: 46 nM | Ki [2]: < 0.018 nM
SMILES: CC(C)(C)OC(=O)N1CC[C@](CO)(Nc2cc(-c3cnc(N)nc3)nc(N3CCOCC3)n2)C1
